Data as given in PMC4197335, “Cancer-Selective Targeting of the NF-κB Survival Pathway with GADD45β/MKK7 Inhibitors” (Cancer Cell, 2014).
pIC50: −log10 of the molar value.

Biological target: T1, GADD45β/MKK7 complex (Homo sapiens, UniProt O14733)
T1 construct: Full-length human (h)MKK7 was expressed as a protein fused to an N-terminal GST tag (GST-MKK7); made in house
T1 sequence (O14733 1-419): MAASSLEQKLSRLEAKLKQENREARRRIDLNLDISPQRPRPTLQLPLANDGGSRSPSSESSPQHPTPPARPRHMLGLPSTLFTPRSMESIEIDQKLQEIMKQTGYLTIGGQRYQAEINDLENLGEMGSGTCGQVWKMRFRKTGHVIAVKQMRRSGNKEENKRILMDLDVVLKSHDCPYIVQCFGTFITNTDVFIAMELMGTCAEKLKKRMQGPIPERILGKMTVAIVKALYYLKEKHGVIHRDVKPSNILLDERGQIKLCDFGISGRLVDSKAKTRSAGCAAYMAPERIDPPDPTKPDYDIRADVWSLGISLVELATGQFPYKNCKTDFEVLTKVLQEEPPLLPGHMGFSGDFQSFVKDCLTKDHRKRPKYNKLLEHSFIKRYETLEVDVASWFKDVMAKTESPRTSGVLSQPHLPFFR
Assay: ELISA GADD45β/MKK7 competition assay
Assay type: binding
Details: Table S4; read-out: IC50s (ELISA)
Source text: Additional details are provided in Supplemental Experimental Procedures.
(1:1,000) and the HRP chromogenic substrate, o -phenylenediamine (OPD). GST -coated wells wer e […]
The ELISA competition screen used f or the isolation of antagonists of the GADD45β /MKK7 […]
The library deconvolution strategy used for this screen was described previously […]
General information about this type of screens can be found elsewhere […]
Values were expressed as the percentage of inhibition of His6-hGADD45β binding to GST-hMKK7 relative to the binding measured in the absence of […]
Dose-response, ELISA GADD45β /MKK7 competition assays were carried out under similar […]
As part of the SAR analysis and lead optimization process, where appropriate, competitors were tested at a concentration up to 100 nM. In order to determine their stability in biolog ical f luids , peptides were incubated at the concentration of 10 µM in […]
calculated using at least 7 concentrations of peptide and def ined as the mean concentration of peptide […]
the absence of competitor. W here indicated, values were expressed as the percentage of inhibition of His 6 -hGADD45β binding to GST-hMKK7 relative to the binding measured in the absence of competitor.
GST was used as a control in all the experiments. […]
tetrapeptide used as negative control in some of the ELISA and cellular assays was as f ollows: z -DNC, z-T yr -Asp-His-Gln-NH 2 . […]

pIC50 | SMILES
9.19 | CC(=O)N[C@H](Cc1ccc(O)cc1)C(=O)N1CCC[C@@H]1C(=O)N[C@H](Cc1ccccc1)C(N)=O [Ac-YPF-NH2]
9.12 | CC(=O)N[C@H](Cc1ccc(O)cc1)C(=O)N[C@H](CCCNC(=N)N)C(=O)N[C@H](Cc1ccc(O)cc1)C(N)=O [Ac-YRY-NH2]
9.15 | CC(=O)N[C@H](Cc1ccc(O)cc1)C(=O)N[C@H](Cc1c[nH]cn1)C(=O)N[C@H](Cc1ccccc1)C(N)=O [Ac-YHF-NH2]
